These results are taken from PubChem BioAssay (EPA / NIEHS).

Sequences of proteins named here, by UniProt entry; tags and fusion partners are left off.
UniProt P06276, whole entry: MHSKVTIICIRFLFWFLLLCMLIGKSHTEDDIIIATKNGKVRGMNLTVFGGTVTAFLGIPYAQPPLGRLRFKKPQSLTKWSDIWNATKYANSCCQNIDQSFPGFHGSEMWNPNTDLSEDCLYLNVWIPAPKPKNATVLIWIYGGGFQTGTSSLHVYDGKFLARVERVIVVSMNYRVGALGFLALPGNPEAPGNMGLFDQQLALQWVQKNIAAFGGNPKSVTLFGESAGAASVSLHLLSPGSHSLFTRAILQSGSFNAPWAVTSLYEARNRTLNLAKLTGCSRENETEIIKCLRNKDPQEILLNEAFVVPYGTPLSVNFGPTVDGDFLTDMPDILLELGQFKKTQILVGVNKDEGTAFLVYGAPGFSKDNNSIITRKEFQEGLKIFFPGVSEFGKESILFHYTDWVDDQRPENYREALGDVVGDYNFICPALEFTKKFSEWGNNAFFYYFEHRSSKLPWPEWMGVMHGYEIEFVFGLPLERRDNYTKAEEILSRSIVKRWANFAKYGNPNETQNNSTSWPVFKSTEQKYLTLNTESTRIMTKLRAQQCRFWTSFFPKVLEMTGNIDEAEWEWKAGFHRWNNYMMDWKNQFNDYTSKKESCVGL
UniProt P08254, whole entry: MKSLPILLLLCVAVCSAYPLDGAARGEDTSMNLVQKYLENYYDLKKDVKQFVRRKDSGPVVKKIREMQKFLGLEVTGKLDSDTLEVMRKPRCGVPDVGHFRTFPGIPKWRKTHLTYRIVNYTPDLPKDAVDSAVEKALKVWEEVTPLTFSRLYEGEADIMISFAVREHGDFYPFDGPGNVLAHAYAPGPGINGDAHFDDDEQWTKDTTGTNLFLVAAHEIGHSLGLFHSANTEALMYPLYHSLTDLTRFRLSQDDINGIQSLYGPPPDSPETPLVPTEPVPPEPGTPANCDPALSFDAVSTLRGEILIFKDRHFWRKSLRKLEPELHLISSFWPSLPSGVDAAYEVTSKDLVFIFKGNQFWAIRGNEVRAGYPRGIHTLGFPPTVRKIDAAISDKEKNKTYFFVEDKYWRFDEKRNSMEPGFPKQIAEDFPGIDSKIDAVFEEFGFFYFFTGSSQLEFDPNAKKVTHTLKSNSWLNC
UniProt P03956, whole entry: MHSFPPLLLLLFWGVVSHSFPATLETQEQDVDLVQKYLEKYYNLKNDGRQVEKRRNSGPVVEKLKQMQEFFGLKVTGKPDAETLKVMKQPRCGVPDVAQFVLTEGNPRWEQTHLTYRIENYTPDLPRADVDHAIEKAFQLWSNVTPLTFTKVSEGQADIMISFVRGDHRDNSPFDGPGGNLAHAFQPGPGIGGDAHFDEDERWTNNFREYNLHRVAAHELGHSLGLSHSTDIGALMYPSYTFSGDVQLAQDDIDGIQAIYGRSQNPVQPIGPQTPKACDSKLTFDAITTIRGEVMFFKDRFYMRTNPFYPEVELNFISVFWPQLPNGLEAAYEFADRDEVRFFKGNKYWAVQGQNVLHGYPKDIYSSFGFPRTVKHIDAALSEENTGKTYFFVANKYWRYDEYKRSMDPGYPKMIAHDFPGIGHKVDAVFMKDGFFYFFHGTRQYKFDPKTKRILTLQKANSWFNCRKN
UniProt P67775, whole entry: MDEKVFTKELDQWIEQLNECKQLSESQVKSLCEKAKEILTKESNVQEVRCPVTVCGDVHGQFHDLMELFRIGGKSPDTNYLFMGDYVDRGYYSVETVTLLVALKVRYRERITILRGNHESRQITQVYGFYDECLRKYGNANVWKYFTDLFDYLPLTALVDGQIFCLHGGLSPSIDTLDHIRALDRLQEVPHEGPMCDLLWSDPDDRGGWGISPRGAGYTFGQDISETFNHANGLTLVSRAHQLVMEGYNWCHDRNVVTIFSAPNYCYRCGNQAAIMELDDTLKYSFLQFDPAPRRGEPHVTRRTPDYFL
UniProt P60484, whole entry: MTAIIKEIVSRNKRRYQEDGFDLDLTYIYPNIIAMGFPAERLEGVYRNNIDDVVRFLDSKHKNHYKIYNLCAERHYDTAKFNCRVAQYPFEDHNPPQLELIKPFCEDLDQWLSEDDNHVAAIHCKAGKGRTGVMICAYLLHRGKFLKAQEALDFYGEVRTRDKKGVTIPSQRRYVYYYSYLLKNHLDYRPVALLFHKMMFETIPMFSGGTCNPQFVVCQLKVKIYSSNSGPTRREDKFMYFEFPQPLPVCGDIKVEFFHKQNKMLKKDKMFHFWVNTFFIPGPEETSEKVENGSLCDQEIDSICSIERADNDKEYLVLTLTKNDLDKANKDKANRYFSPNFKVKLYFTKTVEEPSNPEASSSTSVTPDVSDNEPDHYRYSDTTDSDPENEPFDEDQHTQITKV
UniProt P31751, whole entry: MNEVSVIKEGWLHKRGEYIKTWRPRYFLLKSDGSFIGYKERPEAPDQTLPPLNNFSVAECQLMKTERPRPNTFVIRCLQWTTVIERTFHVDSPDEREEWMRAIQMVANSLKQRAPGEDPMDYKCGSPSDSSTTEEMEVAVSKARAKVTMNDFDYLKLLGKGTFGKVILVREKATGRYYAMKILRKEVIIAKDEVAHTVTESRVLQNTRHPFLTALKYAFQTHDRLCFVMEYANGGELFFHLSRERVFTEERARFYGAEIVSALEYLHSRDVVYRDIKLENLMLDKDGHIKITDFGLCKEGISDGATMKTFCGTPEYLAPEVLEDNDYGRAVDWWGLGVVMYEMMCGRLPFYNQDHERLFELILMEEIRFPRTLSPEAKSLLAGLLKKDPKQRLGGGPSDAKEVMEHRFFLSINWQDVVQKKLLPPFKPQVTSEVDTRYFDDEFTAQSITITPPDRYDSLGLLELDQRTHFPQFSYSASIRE
UniProt O14965, whole entry: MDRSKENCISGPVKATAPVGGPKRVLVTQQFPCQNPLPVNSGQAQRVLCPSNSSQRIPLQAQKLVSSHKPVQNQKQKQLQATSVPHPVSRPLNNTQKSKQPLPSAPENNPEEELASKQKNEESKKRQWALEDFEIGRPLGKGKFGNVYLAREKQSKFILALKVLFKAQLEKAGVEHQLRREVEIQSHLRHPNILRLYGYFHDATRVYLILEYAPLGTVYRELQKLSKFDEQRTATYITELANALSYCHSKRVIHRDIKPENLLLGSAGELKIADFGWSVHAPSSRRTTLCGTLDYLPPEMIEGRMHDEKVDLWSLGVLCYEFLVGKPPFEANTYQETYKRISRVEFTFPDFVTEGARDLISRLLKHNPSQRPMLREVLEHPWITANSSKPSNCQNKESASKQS
UniProt P07333, whole entry: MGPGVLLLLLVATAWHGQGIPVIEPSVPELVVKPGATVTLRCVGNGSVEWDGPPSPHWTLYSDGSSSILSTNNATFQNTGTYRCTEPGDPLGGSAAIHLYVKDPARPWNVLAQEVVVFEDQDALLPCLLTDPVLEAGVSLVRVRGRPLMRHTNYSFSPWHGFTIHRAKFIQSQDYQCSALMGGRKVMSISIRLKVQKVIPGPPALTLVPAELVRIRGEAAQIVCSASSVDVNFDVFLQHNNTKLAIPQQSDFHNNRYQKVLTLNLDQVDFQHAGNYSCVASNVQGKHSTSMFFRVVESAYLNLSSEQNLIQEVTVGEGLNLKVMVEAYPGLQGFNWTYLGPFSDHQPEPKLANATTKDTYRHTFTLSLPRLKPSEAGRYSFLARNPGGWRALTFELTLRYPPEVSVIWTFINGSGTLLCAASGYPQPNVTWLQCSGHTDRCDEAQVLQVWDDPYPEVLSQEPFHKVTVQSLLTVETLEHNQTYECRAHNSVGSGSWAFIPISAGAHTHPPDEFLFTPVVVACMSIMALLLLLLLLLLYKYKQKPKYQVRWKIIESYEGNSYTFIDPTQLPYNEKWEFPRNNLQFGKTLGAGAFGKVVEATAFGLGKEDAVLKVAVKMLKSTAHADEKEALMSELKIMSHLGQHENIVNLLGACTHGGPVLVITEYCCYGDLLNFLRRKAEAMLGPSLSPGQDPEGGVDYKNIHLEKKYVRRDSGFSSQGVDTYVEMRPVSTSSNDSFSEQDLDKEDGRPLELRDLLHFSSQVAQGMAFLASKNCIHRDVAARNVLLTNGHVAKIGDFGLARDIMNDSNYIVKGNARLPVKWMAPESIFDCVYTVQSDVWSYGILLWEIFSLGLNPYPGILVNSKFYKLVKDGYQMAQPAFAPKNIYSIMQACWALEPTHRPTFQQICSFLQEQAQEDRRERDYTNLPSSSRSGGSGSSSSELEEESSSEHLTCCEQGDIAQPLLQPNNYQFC
UniProt P27361, whole entry: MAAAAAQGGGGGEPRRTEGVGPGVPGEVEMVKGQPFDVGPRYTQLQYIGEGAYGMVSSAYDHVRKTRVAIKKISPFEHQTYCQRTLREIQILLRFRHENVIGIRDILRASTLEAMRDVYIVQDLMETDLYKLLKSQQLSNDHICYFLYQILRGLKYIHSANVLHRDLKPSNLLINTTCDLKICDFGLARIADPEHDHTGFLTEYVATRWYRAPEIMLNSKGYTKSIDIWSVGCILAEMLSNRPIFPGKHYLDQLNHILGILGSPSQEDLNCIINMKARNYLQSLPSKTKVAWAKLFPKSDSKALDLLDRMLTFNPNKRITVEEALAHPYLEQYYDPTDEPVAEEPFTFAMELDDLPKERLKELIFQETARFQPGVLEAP
UniProt O96013, whole entry: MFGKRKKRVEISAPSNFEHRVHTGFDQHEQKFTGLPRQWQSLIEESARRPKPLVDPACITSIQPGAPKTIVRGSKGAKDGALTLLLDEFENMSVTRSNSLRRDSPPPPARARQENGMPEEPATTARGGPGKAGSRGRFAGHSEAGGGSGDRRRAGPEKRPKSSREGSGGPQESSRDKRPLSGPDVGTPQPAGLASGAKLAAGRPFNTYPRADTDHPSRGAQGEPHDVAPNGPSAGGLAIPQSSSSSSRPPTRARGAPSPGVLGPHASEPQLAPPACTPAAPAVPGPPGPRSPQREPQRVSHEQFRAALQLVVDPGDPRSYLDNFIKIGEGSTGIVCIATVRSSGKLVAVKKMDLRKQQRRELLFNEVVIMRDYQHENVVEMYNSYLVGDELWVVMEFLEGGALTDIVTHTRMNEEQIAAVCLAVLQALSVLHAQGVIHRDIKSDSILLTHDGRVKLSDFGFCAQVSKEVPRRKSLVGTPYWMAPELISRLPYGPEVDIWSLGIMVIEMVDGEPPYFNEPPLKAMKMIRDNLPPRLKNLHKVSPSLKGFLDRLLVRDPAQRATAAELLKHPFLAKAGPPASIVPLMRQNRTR
UniProt P29317, whole entry: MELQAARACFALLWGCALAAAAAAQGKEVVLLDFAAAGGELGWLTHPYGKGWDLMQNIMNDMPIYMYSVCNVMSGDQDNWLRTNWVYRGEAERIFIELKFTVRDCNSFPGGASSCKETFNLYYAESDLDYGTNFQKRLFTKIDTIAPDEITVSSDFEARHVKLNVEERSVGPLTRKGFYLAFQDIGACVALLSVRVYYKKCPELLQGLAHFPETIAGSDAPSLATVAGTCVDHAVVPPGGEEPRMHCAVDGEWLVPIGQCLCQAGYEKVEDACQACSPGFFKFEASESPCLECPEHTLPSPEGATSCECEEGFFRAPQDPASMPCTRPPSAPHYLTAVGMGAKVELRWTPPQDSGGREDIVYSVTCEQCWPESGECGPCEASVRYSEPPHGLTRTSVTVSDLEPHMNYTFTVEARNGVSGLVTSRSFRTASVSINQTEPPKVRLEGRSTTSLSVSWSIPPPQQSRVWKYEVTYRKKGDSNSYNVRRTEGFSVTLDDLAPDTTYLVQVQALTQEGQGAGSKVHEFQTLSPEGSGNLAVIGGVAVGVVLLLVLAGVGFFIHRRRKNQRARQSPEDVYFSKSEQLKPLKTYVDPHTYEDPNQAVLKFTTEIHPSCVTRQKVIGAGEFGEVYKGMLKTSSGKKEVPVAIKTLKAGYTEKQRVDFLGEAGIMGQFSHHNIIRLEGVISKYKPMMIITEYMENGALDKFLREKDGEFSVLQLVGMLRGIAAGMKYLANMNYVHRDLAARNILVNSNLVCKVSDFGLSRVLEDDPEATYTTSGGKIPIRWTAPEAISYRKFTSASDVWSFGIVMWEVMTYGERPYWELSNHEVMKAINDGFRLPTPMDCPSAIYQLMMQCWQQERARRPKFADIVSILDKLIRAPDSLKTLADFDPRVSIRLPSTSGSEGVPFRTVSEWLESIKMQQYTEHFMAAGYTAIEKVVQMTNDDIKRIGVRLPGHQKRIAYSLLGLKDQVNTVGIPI
UniProt P28482, whole entry: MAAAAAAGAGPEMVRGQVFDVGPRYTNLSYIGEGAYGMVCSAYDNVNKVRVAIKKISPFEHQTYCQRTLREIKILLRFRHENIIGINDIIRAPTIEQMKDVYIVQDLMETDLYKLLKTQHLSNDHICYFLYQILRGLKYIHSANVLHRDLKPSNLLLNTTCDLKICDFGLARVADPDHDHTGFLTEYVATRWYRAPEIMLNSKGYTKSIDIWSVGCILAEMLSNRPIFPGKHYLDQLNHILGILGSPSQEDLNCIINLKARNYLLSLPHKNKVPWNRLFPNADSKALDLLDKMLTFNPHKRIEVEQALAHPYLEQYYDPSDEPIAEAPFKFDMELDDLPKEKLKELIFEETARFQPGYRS

Molecules are shown by their SMILES. The list shows a part of the results, in another mix than the full data. Inconclusive results are not listed. Activity calls are given as the source filed them. The calls were made as follows: active = hit-call score of the fitted dose curve at least 0.9, where 1 is the maximum; inconclusive = response in the unintended direction; inactive = score below 0.9.

The target in assay [1] is human Phosphodiesterase 10 (PDE10), PDE10A (gene 10846) (UniProt Q9Y233). In words: NVS_ENZ_hPDE10: NovaScreen (NVS) Enzymatic Assay for human Phosphodiesterase 10 (PDE10) (AID 2283195). A digest of the protocol:
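Fluorescence readout after mobility-shift separation of substrate and product, 1 h reaction with recombinant human enzyme. Single-concentration duplicates at 25 uM, then concentration-response up to 50 uM for chemicals reaching threshold; DMSO baseline.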

The target in assay [2] is human Phosphoinositide 3-kinase alpha (PI3Ka), PIK3CA (gene 5290) (UniProt P42336). In words: NVS_ENZ_hPI3Ka: NovaScreen (NVS) Enzymatic Assay for human Phosphoinositide 3-kinase alpha (PI3Ka) (AID 2283196). The method, boiled down:
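Fluorescence/mobility-shift readout of substrate conversion by recombinant enzyme, 1 h post-dosing. Primary screen in duplicate at 25 uM; actives (e.g. ≥30% inhibition) retested in singleton concentration-response, top concentration 50 uM.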

Assay [3] concerns the target human Esterase Plasma (ES), BCHE (gene 590) (UniProt P06276). In words: NVS_ENZ_hES: NovaScreen (NVS) Enzymatic Assay for human Esterase Plasma (ES) (AID 2283157). The method, boiled down: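 Primary single-concentration screen at 25 uM in duplicate, then concentration-response to a 50 uM top dose. Human plasma esterase activity detected colorimetrically after 0.25 h incubation, with DMSO as baseline.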

Assay [4] addresses human Fibroblast Growth Factor Receptor 1 (FGFR1), FGFR1 (gene 2260) (UniProt P11362). In words: NVS_ENZ_hFGFR1: NovaScreen (NVS) Enzymatic Assay for human Fibroblast Growth Factor Receptor 1 (FGFR1) (AID 2283159). The method, boiled down: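 Cell-free recombinant kinase with fluorescent substrate, product separated by electrophoretic mobility shift; read 1 hour after dosing, loss of signal relative to DMSO. Initial screen in duplicate at 25 uM, actives followed in concentration series.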

Assay [5] addresses human Matrix Metalloproteinase-3 (MMP3), MMP3 (gene 4314) (UniProt P08254). In words: NVS_ENZ_hMMP3: NovaScreen (NVS) Enzymatic Assay for human Matrix Metalloproteinase-3 (MMP3) (AID 2283185). The method, boiled down:
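Fluorescent substrate turnover by recombinant MMP3 read after 1 h, signal loss scored against DMSO. Compounds first run in duplicate at 25 uM single dose, then actives confirmed by concentration series.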

For assay [6], the target named is human Matrix Metalloproteinase-1 (MMP1), MMP1 (gene 4312) (UniProt P03956). In words: NVS_ENZ_hMMP1: NovaScreen (NVS) Enzymatic Assay for human Matrix Metalloproteinase-1 (MMP1) (AID 2283181). The method, boiled down:
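Cell-free fluorescent substrate assay of human MMP1, read after 1 h. A single 25 uM duplicate screen was followed by concentration series to a maximum of 50 uM for actives meeting threshold; inhibition analysed against DMSO baseline.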

The target of assay [7] is human Beta-secretase (BACE), BACE1 (gene 23621) (UniProt P56817). In words: NVS_ENZ_hBACE: NovaScreen (NVS) Enzymatic Assay for human Beta-secretase (BACE) (AID 2283140).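 Also: hits are inhibitors that reduce fluorescent substrate signal versus DMSO.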 A digest of the protocol: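 Enzyme activity of SF9-produced BACE1 is measured cell-free by fluorescence, 1 hour post dosing, normalised to DMSO. Screening used 25 uM in duplicate, with concentration-response follow-up for actives.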

Assay [8] deals with human Phosphodiesterase 5 (PDE5), PDE5A (gene 8654) (UniProt O76074). In words: NVS_ENZ_hPDE5: NovaScreen (NVS) Enzymatic Assay for human Phosphodiesterase 5 (PDE5) (AID 2283194). A digest of the protocol: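 Screening began in duplicate at 25 uM, with actives taken into concentration-response. Enzyme activity of recombinant PDE5 toward its substrate was measured at 1 h by fluorescence mobility-shift detection, relative to DMSO controls.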

Assay [9] concerns the target human Protein Phosphatase, Mg2+/Mn2+ Dependent 1A (PPM1A), PPM1A (gene 5494) (UniProt P35813). In words: NVS_ENZ_hPPM1A: NovaScreen (NVS) Enzymatic Assay for human Protein Phosphatase, Mg2+/Mn2+ Dependent 1A (PPM1A) (AID 2283198). A digest of the protocol: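 Primary screen in duplicate at 25 uM, with actives then titrated to a maximum of 50 uM. Recombinant PPM1A dephosphorylation of fluorescent substrate measured at 1 h, with substrate and product separated by mobility shift; inhibition fitted against DMSO.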

In assay [10] the target is PPP2CA (gene 5515) (UniProt P67775). In words: NVS_ENZ_hPPP2CA: NovaScreen (NVS) Enzymatic Assay for human Protein Phosphatase 2 Aatalytic subunit Alpha (PPP2CA) (AID 2283199). The method, boiled down: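 Cell-free phosphatase activity: fluorescent substrate turnover by recombinant human enzyme, resolved by mobility shift at 1.33 h. Compounds passing the 25 uM duplicate primary screen were rerun in singleton series with a 50 uM top concentration.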

The target in assay [11] is human Phosphatase and Tensin Homolog (PTEN), PTEN (gene 5728) (UniProt P60484). In words: NVS_ENZ_hPTEN: NovaScreen (NVS) Enzymatic Assay for human Phosphatase and Tensin Homolog (PTEN) (AID 2283203). A digest of the protocol:
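Loss of fluorescent product signal after mobility-shift separation reports PTEN activity, recombinant human enzyme, 1 h after compound addition. Single 25 uM duplicate screen, then concentration-response on actives; DMSO baseline.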

Assay [12] has as its target human AKT serine/threonine Kinase 1 (AKT1), AKT1 (gene 207) (UniProt P31749). In words: NVS_ENZ_hAKT1: NovaScreen (NVS) Enzymatic Assay for human AKT serine/threonine Kinase 1 (AKT1) (AID 2283138). The method, boiled down:
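A biochemical assay with recombinant enzyme and specific substrate, read by fluorescence intensity with mobility-shift separation 1 hour after dosing. Actives from 25 uM duplicate screening were titrated up to 50 uM against DMSO baseline.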

For assay [13], the target named is human AKT serine/threonine Kinase 2 (AKT2), AKT2 (gene 208) (UniProt P31751). In words: NVS_ENZ_hAKT2: NovaScreen (NVS) Enzymatic Assay for human AKT serine/threonine Kinase 2 (AKT2) (AID 2283141). A digest of the protocol: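 Cell-free fluorescence/electrophoretic mobility shift readout of recombinant human AKT2 activity, 1 h after chemical dosing. Duplicate primary screen at 25 uM, then singleton concentration-response up to 50 uM; loss of signal versus DMSO baseline.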

Assay [14] addresses human Aurora Kinase A - serine/threonine-protein Kinase 6 (AurA), AURKA (gene 6790) (UniProt O14965). In words: NVS_ENZ_hAurA: NovaScreen (NVS) Enzymatic Assay for human Aurora Kinase A - serine/threonine-protein Kinase 6 (AurA) (AID 2283142). The method, boiled down:
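Recombinant human AurA activity read by fluorescence after mobility-shift separation of product from substrate; 1 hour incubation. Chemicals first run in duplicate at 25 uM, then concentration series to 50 uM if over threshold; fitted relative to DMSO.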

The target in assay [15] is human Colony Stimulating Factor 1 Receptor (CSF1R), CSF1R (gene 1436) (UniProt P07333). In words: NVS_ENZ_hCSF1R: NovaScreen (NVS) Enzymatic Assay for human Colony Stimulating Factor 1 Receptor (CSF1R) (AID 2283150). The method, boiled down:
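Compounds screened in duplicate at 25 uM, then concentration-response (top 50 uM) for those passing threshold such as 30% inhibition; recombinant CSF1R activity measured 1 h post-dosing via fluorescent substrate/product mobility-shift separation, loss of signal versus DMSO.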

For assay [16], the target named is human Epidermal Growth Factor Receptor (EGFR), EGFR (gene 1956) (UniProt P00533). In words: NVS_ENZ_hEGFR: NovaScreen (NVS) Enzymatic Assay for human Epidermal Growth Factor Receptor (EGFR) (AID 2283151). The method, boiled down: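 Cell-free kinase assay, fluorescence plus electrophoretic mobility shift separating substrate and product, read 1 hour after dosing; loss of signal vs DMSO. Duplicate screen at 25 uM, then concentration-response to 50 uM.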

For assay [17], the target named is Mitogen-activated protein kinase 3 (Homo sapiens) (UniProt P27361). In words: NVS_ENZ_hMAPK3: NovaScreen (NVS) Enzymatic Assay for human Mitogen-Activated Protein Kinase 3 (MAPK 3) (AID 2283177). The method, boiled down:
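Chemicals were first tested in duplicate at 25 uM, with hits re-run as concentration series (max 50 uM). Recombinant enzyme activity, measured 1 h post-dose in a cell-free format, was read by fluorescence/mobility shift relative to DMSO.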

Assay [18] addresses human p21 Activated Kinase 4 (PAK4), PAK4 (gene 10298) (UniProt O96013). In words: NVS_ENZ_hPAK4: NovaScreen (NVS) Enzymatic Assay for human p21 Activated Kinase 4 (PAK4) (AID 2283189). A digest of the protocol: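 Extracted PAK4 enzyme activity read by fluorescence with mobility-shift separation 1 h after chemical addition. Duplicate single-concentration screen at 25 uM, DMSO as negative control.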

Assay [19] has as its target human Ephrin type-A Receptor 2 (EphA2), EPHA2 (gene 1969) (UniProt P29317). In words: NVS_ENZ_hEphA2: NovaScreen (NVS) Enzymatic Assay for human Ephrin type-A Receptor 2 (EphA2) (AID 2283155). The method, boiled down:
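Enzyme activity of recombinant EphA2 read by fluorescence after mobility-shift separation, 1 h after dosing. Chemicals first tested at 25 uM (duplicate); those passing threshold run as concentration series, top 50 uM, single replicate, relative to DMSO.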

Assay [20] has as its target human Mitogen-Activated Protein Kinase 1 (MAPK 1), MAPK1 (gene 5594) (UniProt P28482). In words: NVS_ENZ_hMAPK1: NovaScreen (NVS) Enzymatic Assay for human Mitogen-Activated Protein Kinase 1 (MAPK 1) (AID 2283175). A digest of the protocol: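 Cell-free recombinant human MAPK1 enzymatic assay, fluorescence/electrophoretic mobility shift read at 1 h; loss of signal vs DMSO. Primary screen in duplicate at 25 uM; actives (e.g. ≥30% inhibition) run as concentration-response up to 50 uM.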

Take `Cc1ccc([N+](=O)[O-])c([N+](=O)[O-])c1`: the result in assay [1] was inactive. Moreover, the AC50 in assay [2] is active: 25 µM.
Turning to `Cc1cccc([N+](=O)[O-])c1[N+](=O)[O-]`, the call in assay [3], in assay [4] and in assay [5] was inactive.
Regarding `Cc1c([N+](=O)[O-])cccc1[N+](=O)[O-]`, the call in assay [3], in [6] and in assay [5] was inactive.
For `O=[N+]([O-])c1cccc([N+](=O)[O-])c1`, the molecule was called inactive in assay [7], in assay [4], in assay [6], in [8], in assay [9] and in assay [10].
As for `N#CBr`, in assay [11], the AC50 is active: 4.72 µM.
For `Cc1ccc([N+](=O)[O-])cc1[N+](=O)[O-]`, the call in assay [12], in assay [13], in [14], in assay [15], in assay [16] and in assay [17] was inactive. In addition, the outcome in assay [18] and in assay [11] was inactive.
In the case of `CC(C)OP(C)(=O)OC(C)C`, the outcome in [19] and in assay [20] was inactive.

Broadly, the AC50 is the concentration giving half of the maximal activity seen.
